From US11198705B2, “Hybrid Amphotericin B derivatives with reduced toxicity” (priority 2018, dated 2021) come the findings set out here.

Data set [1] in a line: IV toxicity in rats (BUN, ALT/AST, mortality). As to conditions: rats, 2, 10, and 17.5 mg/kg (highest dose tested).
A short description of the next data set: Cmax in rats. As to conditions: C2′epiAmB at 17.5 mg/kg vs AmB at 1 mg/kg. Format: in vivo.

A value given as a limit tells only on which side of the number the result lay.

For `C[C@@H]1[C@H](O)[C@@H](C)/C=C/C=C/C=C/C=C/C=C/C=C/C=C/[C@H](O[C@@H]2O[C@H](C)[C@@H](O)[C@H](N)[C@H]2O)C[C@@H]2O[C@](O)(C[C@@H](O)C[C@@H](O)[C@H](O)CC[C@@H](O)C[C@@H](O)CC(=O)O[C@H]1C)C[C@H](O)[C@H]2C(=O)O` [C2′epiAmB], the “BUN, ALT/AST and mortality” value in data set [1] was “no elevations in BUN or ALT/AST and no mortality”. In “Cmax in rats”, the “Cmax relative to Cmax for AmB” value is reported as more than 16 fold.
